How the values were obtained:
Experiment in all cases: MALDI-MS analysis of inhibitor-treated enzyme
Format in all cases: binding
WT-PAD4 = WT-PAD4 (Homo sapiens, UniProt Q9UM07); conditions: 1:10 enzyme:inhibitor, 1 h, WT-PAD4 3 μM
PAD4 C645A = PAD4 C645A (Homo sapiens, UniProt Q9UM07, C645A); conditions: 1:10 enzyme:inhibitor, 1 h, PAD4 C645A 5 μM
PAD2 = PAD2 (Homo sapiens, UniProt Q9Y2J8); conditions: 1:10 enzyme:inhibitor, 1 h, PAD2 3 μM

Chains of the proteins cited; added tags and fusions are not shown.
UniProt Q9UM07, whole entry: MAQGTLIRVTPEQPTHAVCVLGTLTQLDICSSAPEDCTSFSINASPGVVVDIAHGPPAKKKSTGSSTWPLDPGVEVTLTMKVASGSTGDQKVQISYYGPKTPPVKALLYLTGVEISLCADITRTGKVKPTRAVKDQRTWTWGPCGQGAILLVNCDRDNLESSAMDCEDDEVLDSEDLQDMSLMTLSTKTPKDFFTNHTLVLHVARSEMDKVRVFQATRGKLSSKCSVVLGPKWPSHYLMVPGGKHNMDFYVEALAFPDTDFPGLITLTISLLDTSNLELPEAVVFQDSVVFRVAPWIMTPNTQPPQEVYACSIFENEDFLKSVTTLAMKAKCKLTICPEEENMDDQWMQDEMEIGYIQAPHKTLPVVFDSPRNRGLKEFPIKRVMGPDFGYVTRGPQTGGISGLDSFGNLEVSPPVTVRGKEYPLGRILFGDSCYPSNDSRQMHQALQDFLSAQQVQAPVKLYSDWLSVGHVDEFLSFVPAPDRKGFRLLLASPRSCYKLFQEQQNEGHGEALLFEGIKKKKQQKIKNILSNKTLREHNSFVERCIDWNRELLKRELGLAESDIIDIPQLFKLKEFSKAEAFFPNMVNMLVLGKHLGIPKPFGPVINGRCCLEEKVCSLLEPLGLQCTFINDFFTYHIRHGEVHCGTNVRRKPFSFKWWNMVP
UniProt Q9UM07, whole entry C645A: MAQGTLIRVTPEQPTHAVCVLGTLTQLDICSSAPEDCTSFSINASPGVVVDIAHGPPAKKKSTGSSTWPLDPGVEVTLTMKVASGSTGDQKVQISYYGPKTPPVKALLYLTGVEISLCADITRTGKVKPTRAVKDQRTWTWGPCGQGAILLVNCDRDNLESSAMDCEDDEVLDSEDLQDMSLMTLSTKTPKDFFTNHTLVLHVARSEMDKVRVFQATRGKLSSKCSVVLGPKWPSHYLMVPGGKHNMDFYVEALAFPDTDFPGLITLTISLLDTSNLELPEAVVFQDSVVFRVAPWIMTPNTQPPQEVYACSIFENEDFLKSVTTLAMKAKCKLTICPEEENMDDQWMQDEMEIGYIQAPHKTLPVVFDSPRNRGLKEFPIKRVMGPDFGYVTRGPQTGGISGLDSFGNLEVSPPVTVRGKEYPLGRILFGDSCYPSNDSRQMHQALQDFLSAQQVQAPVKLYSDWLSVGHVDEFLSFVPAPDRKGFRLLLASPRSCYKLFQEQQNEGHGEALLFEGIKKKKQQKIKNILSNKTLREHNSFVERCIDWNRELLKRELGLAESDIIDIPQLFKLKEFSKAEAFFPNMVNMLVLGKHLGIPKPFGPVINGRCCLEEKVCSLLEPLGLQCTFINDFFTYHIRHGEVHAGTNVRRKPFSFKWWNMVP
UniProt Q9Y2J8, whole entry: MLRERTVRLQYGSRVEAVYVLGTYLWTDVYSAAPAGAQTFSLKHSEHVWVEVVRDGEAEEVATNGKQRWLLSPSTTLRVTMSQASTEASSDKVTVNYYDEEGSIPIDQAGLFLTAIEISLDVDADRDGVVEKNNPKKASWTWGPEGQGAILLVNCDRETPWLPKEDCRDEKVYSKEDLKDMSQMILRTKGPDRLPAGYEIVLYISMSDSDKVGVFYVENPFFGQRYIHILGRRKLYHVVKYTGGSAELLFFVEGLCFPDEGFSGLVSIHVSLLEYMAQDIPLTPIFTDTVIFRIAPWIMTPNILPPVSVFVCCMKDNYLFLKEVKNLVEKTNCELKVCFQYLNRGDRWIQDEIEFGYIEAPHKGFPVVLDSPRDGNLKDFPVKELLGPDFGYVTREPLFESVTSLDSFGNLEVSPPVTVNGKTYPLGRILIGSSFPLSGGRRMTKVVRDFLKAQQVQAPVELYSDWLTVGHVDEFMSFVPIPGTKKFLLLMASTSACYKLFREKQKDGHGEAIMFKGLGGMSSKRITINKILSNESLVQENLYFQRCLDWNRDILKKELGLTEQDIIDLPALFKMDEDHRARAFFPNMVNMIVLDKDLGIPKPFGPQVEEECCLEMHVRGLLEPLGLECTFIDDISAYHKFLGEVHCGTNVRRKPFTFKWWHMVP

NC1=CC(=O)c2ccc(-c3cccc(C(=O)O)n3)nc2C1=O [Compound 17]
mass shift of WT-PAD4 (Δ Da) (WT-PAD4): 945 Da | mass shift of PAD4 C645A (Δ Da) (PAD4 C645A): 792 Da | mass shift of PAD2 (PAD2): 853 Da

Source: article PMC3954981 (Bioorganic & medicinal chemistry, 2014)
